Converted amounts (≈) assume the structure as drawn.
Legend:
40 targets, mostly GPCRs = details: 10 μM, NIMH PDSP

O=C1c2ccccc2C(Cc2c(F)cncc2F)(Cc2c(F)cncc2F)c2ccccc21 [compound 6]
Off-target activities: number of targets (of 40) with >30% binding (40 targets, mostly GPCRs): 2
solubility kinetic (physchem): 30 µM (≈ 13.5 µg/mL)

From paper PMC6858848 (Bioorganic & medicinal chemistry letters, 2019)
